Measurements published in patent US5928932A, “Isolated gene encoding an enzyme with UDP-glucose pyrophosphorylase and phosphoglucomutase activities from Cyclotella cryptica” (priority 1996, dated 1999).

Columns and labels:
[1] = tested on: O=P(O)(O)O[C@H]1O[C@H](CO)[C@@H](O)[C@H](O)[C@H]1O; experiment: purified protein, by the assay type; details: other: highly purified enzyme, double reciprocal plot, FIG. 3A, pH 7.8
[2] = tested on: O=P(O)(O)OC[C@H]1OC(O)[C@H](O)[C@@H](O)[C@@H]1O; experiment: purified protein, by the assay type; details: other: purified enzyme; 10 μM glucose-1,6-diphosphate included; FIG. 3B; pH 7.8; 30.0 °C

“PGMase portion of the UGPase/PGMase enzyme (Cyclotella cryptica)” was tested, and the Km ([1]; 25.0 °C) was 87 µM.
Work on “UGPase portion of the UGPase/PGMase enzyme (Cyclotella cryptica)” yielded a Km ([1]; 30.0 °C) of 81 µM.
Work on “purified UGPase/PGMase protein (Cyclotella cryptica)” yielded a Km [2] of 125 µM.
